Test results published in PubChem BioAssay AID463210 (The Scripps Research Institute Molecular Screening Center, 2010).
The list shows a part of the results, in another mix than the full data. Some tests of the compounds listed are not included; inactive here does not mean inactive elsewhere. Activity calls are given as the source filed them.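 The calls were made as follows: active = percent activation above the screen-wide mean plus 3 SD (cut at about 25% in these data); inactive = the rest.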

Protein sequences, listed by entry. Tags and fused reporters are not part of them.
UniProt P55210, whole entry D23A/D198A/D206A: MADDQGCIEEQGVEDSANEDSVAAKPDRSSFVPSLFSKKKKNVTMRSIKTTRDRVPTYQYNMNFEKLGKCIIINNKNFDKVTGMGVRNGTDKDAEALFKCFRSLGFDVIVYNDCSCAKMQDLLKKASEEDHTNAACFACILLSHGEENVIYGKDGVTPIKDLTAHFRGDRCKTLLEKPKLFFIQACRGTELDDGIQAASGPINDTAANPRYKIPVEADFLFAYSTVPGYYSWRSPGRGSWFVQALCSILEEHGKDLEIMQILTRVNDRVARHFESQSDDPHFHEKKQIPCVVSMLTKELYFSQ

Each compound was assayed against Caspase-7 (Homo sapiens) (UniProt P55210) (assay: activation of procaspase-7 enzyme – biochemical, absorbance, HTS, human, counter-screen for procaspase-3 activator project, primary screen (AID 463210)). Settings: recombinant procaspase-7, Ac-DEVD-pNA absorbance 405 nm; at 8.5 µM; hits give high values; D23A/D198A/D206A triple mutant, cannot self-cleave; scale: DMSO 0, 5 µM enzyme 100.
Outline: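 signal = Epi-absorbance of released pNA at 405 nm, two timepoints | assay system = Uncleavable procaspase-7 mutant enzyme | reagent = Ac-DEVD-pNA substrate, 400 µM as added | times = 1 h enzyme–compound preincubation and 2 h substrate reaction, both 25 °C | benchmarks = low DMSO alone, high DMSO plus 5 µM PC-7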
In the case of `C=CCN1CCN(CCOC(=O)C(O)(c2ccccc2)c2ccccc2)CC1`, the activation is reported as inactive: 19.9%.
For `O=C(NCC1(N2CCCCC2)CCCCC1)c1cc(F)c(F)cc1Cl`, the activation was inactive: -8.32%.
`Cc1cc(C(=O)NCC2(N3CCCCC3)CCCCC2)ccc1[N+](=O)[O-]` was tested, and the activation was inactive: 8.24%.
`CCN1CCCC(OC(=O)C2(O)c3ccccc3C=Cc3ccccc32)C1` (centres undefined) was tested, and the activation was inactive: -1.86%.
In the case of `O=C(NCC1(N2CCCCC2)CCCCC1)c1cccc(Br)c1`, the activation is reported as inactive: 9.13%.
In the case of `COc1ccc(C(=O)NCC2(N(C)C)CCCCC2)cc1`, the activation is reported as inactive: 4.37%.
For `Cc1ccccc1C(=O)NCC1(N2CCCCC2)CCCCC1`, the activation was inactive: 6.61%.
In the case of `CN(C)C1CCCC1OC(=O)C(O)(c1ccccc1)c1ccccc1` (centres undefined), the activation is reported as inactive: -0.88%.
For `CN(C)c1ccc(C(=O)NCC2(N(C)C)CCCCC2)cc1`, the activation was inactive: -4.5%.
With `CC(C)N1C(=O)CC2(CCN(CCOC(=O)C(O)(c3ccccc3)c3ccccc3)CC2)C1=O` the activation was inactive: 9.73%.
`CCN(CC)CC(C)C(C)OC(=O)C(O)(c1ccccc1)c1ccccc1` (centres undefined) was tested, and the activation was inactive: 8.42%.
`COc1cc(SC)ccc1C(=O)NCC1(N(C)C)CCCCC1` was tested, and the activation was inactive: 3.35%.
For `Cc1ccc(C(=O)NCC2(N3CCCCC3)CCCCC2)cc1`, the activation was inactive: -2.52%.
In the case of `O=C(NCC1(N2CCCCC2)CCCCC1)c1cc([N+](=O)[O-])ccc1Cl`, the activation is reported as inactive: 4.46%.
With `CN1[C@@H]2CC[C@H]1CC(OC(=O)C(O)(c1ccccc1)c1ccccc1)C2` (some centres undefined) the activation was inactive: -0.29%.
In the case of `COc1ccc(Br)c(C(=O)NCC2(N3CCCCC3)CCCCC2)c1`, the activation is reported as inactive: 0%.
`CN(C)c1cccc(C(=O)NCC2(N(C)C)CCCCC2)c1` was tested, and the activation was inactive: 3.51%.
`CC(C)Oc1ccc(C(=O)NCC2(N(C)C)CCCCC2)cc1` was tested, and the activation was inactive: -17%.
In the case of `O=C(OC1CN2CCC1CC2)C(CO)(c1ccccc1)c1ccccc1` (centres undefined), the activation is reported as inactive: -2.25%.
`COc1cccc(C(=O)NCC2(N3CCCCC3)CCCCC2)c1` was tested, and the activation was inactive: 3.31%.
For `COc1ccc(Cl)cc1C(=O)NCC1(N(C)C)CCCCC1`, the activation was inactive: 1.4%.
In the case of `O=C(NCC1(N2CCCCC2)CCCCC1)c1cccc(Cl)c1`, the activation is reported as inactive: 10.9%.
With `CN(C)C1(CNC(=O)c2ccc(Br)cc2)CCCCC1` the activation was inactive: 3.81%.
`COc1cc(C(=O)NCC2(N(C)C)CCCCC2)c([N+](=O)[O-])cc1OC` was tested, and the activation was inactive: -0.38%.
